{"sequences": {"note": "Protein sequences, listed by entry. Tags and fused reporters are not part of them. Residues count along the entry.", "UniProt G3K533, 1-205": "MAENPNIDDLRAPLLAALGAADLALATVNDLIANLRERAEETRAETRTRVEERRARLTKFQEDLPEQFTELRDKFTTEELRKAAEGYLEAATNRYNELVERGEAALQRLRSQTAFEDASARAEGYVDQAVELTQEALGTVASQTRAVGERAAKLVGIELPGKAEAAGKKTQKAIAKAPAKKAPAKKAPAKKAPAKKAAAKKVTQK"}, "source": "paper PMC3293801", "about": "“Differential Contribution of the Repeats to Heparin Binding of HBHA, a Major Adhesin of Mycobacterium tuberculosis” (PLoS ONE, 2012)", "target": "Maa HBHA (Mycobacterium avium, UniProt G3K533)", "data": [{"substance": "dp14 heparin-derived oligosaccharide", "values": [{"measurement": "Kd", "result": "47 ± 8", "unit": "µM"}]}]}
